Laboratory results published in ChEMBL document CHEMBL4130633, “Exploration of Benzothiazole Rhodacyanines as Allosteric Inhibitors of Protein-Protein Interactions with Heat Shock Protein 70 (Hsp70)” (J Med Chem, 2018).

How the values were obtained:
Homo sapiens [1] = species: Homo sapiens; test: Selectivity index, ratio of Kd for human HSC70 H227A mutant to Kd for human wild type HSC70
Homo sapiens [2] = species: Homo sapiens; test: Selectivity index, ratio of Kd for human HSC70 Y149A mutant to Kd for human wild type HSC70
Homo sapiens [3] = species: Homo sapiens; test: Selectivity index, ratio of Kd for human HSC70 T222A mutant to Kd for human wild type HSC70
Homo sapiens [4] = species: Homo sapiens; test: Selectivity index, ratio of Kd for human HSC70 Y149W mutant to Kd for human wild type HSC70
Homo sapiens [5] = species: Homo sapiens; test: Selectivity index, ratio of Kd for human HSC70 L228A mutant to Kd for human wild type HSC70

## CCn1c(=O)/c(=C2\Sc3cc(Br)ccc3N2C)s/c1=C\c1scc[n+]1Cc1ccc(C(F)(F)F)o1.[Cl-]
Homo sapiens [1]
  Selectivity Index: 36.8
Homo sapiens [2]
  Selectivity Index: 3.6
Homo sapiens [3]
  Selectivity Index: 12.5
Homo sapiens [4]
  Selectivity Index: 8.4
Homo sapiens [5]
  Selectivity Index: 20.9
